Biological target: T1, 5-LO (Rattus norvegicus, UniProt P12527)
T1 construct: the supernatant was saved as the source of enzymes; endogenous in cells; host or cells: RBL-1 (rat basophilic leukemia) cells
T1 sequence (P12527 1-673): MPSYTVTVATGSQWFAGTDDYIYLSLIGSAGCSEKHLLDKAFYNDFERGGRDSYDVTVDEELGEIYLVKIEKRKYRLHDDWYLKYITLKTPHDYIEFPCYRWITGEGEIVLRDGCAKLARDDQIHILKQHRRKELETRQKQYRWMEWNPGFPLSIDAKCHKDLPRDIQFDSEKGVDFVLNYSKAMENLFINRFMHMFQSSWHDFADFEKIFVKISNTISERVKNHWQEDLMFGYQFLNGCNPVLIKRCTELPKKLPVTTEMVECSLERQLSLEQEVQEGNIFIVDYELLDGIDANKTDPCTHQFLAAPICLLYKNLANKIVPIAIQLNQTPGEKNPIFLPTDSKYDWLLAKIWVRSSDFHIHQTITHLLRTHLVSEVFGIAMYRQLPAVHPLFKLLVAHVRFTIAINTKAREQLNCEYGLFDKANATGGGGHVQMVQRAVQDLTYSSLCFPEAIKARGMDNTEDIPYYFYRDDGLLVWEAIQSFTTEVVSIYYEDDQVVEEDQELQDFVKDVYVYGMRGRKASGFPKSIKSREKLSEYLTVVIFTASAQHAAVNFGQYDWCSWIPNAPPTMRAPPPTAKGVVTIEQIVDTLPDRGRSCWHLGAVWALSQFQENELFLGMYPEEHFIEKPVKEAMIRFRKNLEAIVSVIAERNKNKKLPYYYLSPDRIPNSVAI
Assay: Procedure III: 5-LO (5-HETE) in intact RBL-1 cells
Assay type: cell-based
Conditions: calcium ionophore A 23187, read-out: Proc. III 5-LO IC50
Procedure: The IC50 was determined using a curve fit in Cricket Graph (Computer Associated), which provided the equation of the regressed line used in the calculation.
In Procedure III, the ability to inhibit 5-LO and CO in intact RBL-1 cells was also evaluated. […] Cells were collected by centrifugation, washed once in HBSS, and resuspended at a concentration of 1×10^5 cells/mL. Cells were incubated in the presence of vehicle or drug then centrifuged at 800×g for 10 minutes at 4° C. The supernatant was removed by aspiration and the cells were resuspended in 0.5 mL of HBSS. […] The conversion of AA to 5-LO products was initiated by the addition of 10 μL (50 μCi) of 1-^14 C-AA. Products were isolated by acidification and extraction, followed by thin layer chromatography analysis as described above. Radioactive areas corresponding to authentic 5-LO (5-HETE) and CO (PgD2) products were quantitated by the Bioscan 2000 Imaging System and the IC50 was calculated as above.

IC50: 2.9 µM
Structure (SMILES): COc1ccc(-n2nc(C#CC(C)N(O)C(=O)c3ccco3)cc2-c2ccc(C)cc2)cc1 (stereo not shown) [Cpd 25, N-(furan-2-carbonyl)-N-(1-(1-(4-methoxyphenyl)-5-(4-methylphenyl)pyrazol-3-yl)-1-butyn-3-yl)hydroxylamine]

Reference: patent publication US5925769A, “Acetylenic 1,5-diarylpyrazoles as antiinflammatory agents” (Ortho Pharmaceutical, Corp., priority 1998, dated 1999)
